Several values for one entry are separate records, joined by “and”; a condition that tells them apart may be missing. Equal entries are not always repeated.
Tested on: Panc-1 cells
Test: CCK-8 based cytotoxicity assay
Type: cell-based
Text: The combination of Gemcitabine with P1446A was screened for its synergistic effect in Panc-1 by CCK-8 (Cell counting kit-8) based cytotoxicity assay. CCK-8 based cytotoxicity assay is a sensitive nonradioactive colorimetric assay for determining the number of viable cells in cell proliferation and cytotoxicity assays. WST-8 (2-(2-methoxy-4-nitrophenyl)-3-(4-nitrophenyl)-5-(2,4-disulfophenyl)-2H tetrazolium, monosodium salt) is bioreduced by cellular dehydrogenases to an orange formazan product that is soluble in tissue culture medium. The amount of formazan produced is directly proportional to the number of living cells.
Test System: The Panc-1 cell line was procured from ATCC (American Tissue type Culture Collection USA, catalog number: CRL-1469) and the frozen vial was stored in liquid nitrogen container.
Methodology: Gemcitabine at final concentrations of 1 nM, 10 nM and 100 nM and P1446A at a final concentration of 3 nM, 10 nM, 30 nM, 100 nM and 300 nM were analyzed in single dose and in all possible combinations of the dose range for the two drugs mentioned above. Panc-1 cells were seeded at a density of 3000 cells/well in a 96 well plate and allowed to recover for 24 hrs in a CO2 incubator at 37° C. […] At the end of incubation CCK-8 was added and kept at 37° C. for 3 hrs following which absorbance was measured at 450 nm.

Structure (SMILES): CN1CC[C@@H](c2c(O)cc(O)c3c(=O)cc(-c4ccc(C(F)(F)F)cc4Cl)oc23)[C@@H]1CO.Cl (relative stereo) [P1446A]
- % Cytotoxicity (P1446A 30 nM, 48 hrs): 14.163%
- % Cytotoxicity (P1446A 100 nM, 72 hrs, hydrochloride): 29.6% and 29.603%

Source: patent publication US20100152129A1, “Novel synergistic combination of gemcitabine with P276-00 or P1446A in treatment of cancer” (priority 2008, published 2010)
